Max response, negative = inhibition data for 2 compounds are collected here from PubChem BioAssay AID652054 (National Center for Advancing Translational Sciences (NCATS), 2013).

Protein sequences, listed by entry. Tags and fused reporters are not part of them.
UniProt P35462, whole entry: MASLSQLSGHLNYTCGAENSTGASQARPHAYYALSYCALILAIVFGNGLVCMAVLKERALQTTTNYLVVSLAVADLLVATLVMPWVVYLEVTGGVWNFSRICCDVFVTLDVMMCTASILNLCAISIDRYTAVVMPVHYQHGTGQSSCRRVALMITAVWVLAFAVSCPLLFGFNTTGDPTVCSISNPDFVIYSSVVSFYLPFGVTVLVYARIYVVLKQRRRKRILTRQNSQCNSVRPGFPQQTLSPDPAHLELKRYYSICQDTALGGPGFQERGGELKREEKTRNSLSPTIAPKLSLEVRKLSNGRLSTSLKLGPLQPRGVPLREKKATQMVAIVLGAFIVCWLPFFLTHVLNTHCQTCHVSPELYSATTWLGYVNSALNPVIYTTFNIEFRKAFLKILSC

Only a part is listed here, and it is no random draw. Results filed as inconclusive are left out. Active and inactive are the calls of the source. Rule as the data show it: active = max response below about -50%; inconclusive = no clear call, values can overlap the other calls; inactive = above that.
% is scaled to controls: 0 for no effect and ±100 for the full control effect.

For this experiment, the target named is D(3) dopamine receptor (Homo sapiens) (UniProt P35462). Put plainly: qHTS of D3 Dopamine Receptor Antagonist: qHTS. Particulars: D3R cells, DiscoveRx beta-arrestin luminescence, antagonist mode; stronger effect = lower value. From the text:
D3 DARs represent a very important target for the treatment of several neuropsychiatric disorders. Indeed, one of the most promising therapeutic applications for the D3 DAR is in the area of addiction and related disorders. […] These findings have been observed with a number of addictive substances including cocaine, amphetamine, nicotine, and alcohol. […] Antagonism of the D3 DAR may also be therapeutic in the treatment of schizophrenia or psychosis. […] Since the D3 DAR is expressed in areas of the CNS associated with the control of mood and emotion, it has been hypothesized that selective antagonism of the D3 DAR may be effective in treating psychosis without inducing the motor side effects typically seen with D2 DAR antagonists.
This part of the project aims to discover novel antagonist.
NIH Chemical Genomics Center [NCGC]
NIH Molecular Libraries Probe Centers Network [MLPCN]
Assay Submitter (PI): David Sibley, NINDS
Freshly passaged cells are plated in 1536 well white, solid bottom plates at a density of 1500 cells/well in 3microl of complete media. After an overnight incubation at 37 degrees C in 5% CO2, cells are loaded with 23nl of test compound from the compound library (as well as dopamine controls) using a 1536 pintool and incubated at 37 degrees C for 90 minutes. […] Following incubation, luminescence is measured on a ViewLux CCD-based luminometer reader using a 20 sec exposure time.
Regarding `CCC(=O)N(c1ccccc1)C1(COC)CCN(CCc2cccs2)CC1`, the max response, negative = inhibition is inactive: 0%.

Consider `CCC(=O)N(c1ccccc1)C1(COC)CCN(CCn2nnn(CC)c2=O)CC1`, for which the max response, negative = inhibition was inactive: -12.9%.
